These results are taken from patent publication US20060094649A1, “Hla-a1,-a2,-a3,-a24,-b7, and-b44 tumor associated antigen peptides and compositions” (priority 2002, published 2006).

Where two headings read alike, the source gives them in different places.

Assay [1] has as its system HLA-A3 supertype molecules. Kind of assay: HLA-A3 supertype cross-binding (A*0301, A*1101, A*3101, A*3301, A*6801).
The next assay has as its target HLA-A*6801 (Homo sapiens, UniProt P04439, A269V/D185E/E176V/E277Q/E87N/F33Y/G231S/I121M/I166T/I218V/L180W/L300P/L318F/N151K/P208A/P217A/Q86R/R169H/T345S). Kind of assay: Class I peptide-binding assay, HLA-A*6801.
A further assay deals with HLA-A*1101 (Homo sapiens, UniProt P04439, A114D/D185E/E176A/F33Y/L180Q/S129P/T187R). Kind of assay: Class I peptide-binding assay, HLA-A*1101.
The target of another assay is HLA-A*0301 (Homo sapiens, UniProt P04439). Kind of assay: Class I peptide-binding assay, HLA-A*0301.
Assay [2] has as its system peptide-pulsed target cells. Kind of assay: In vitro primary CTL induction, recognition of peptide-pulsed targets (51Cr release or IFNγ ELISA). It counts as cell-based, human. Conditions: Table 16d, second part; positive/total tested. A general note: In an ELISA, binding on a coated surface is turned into a signal by an enzyme label.
Assay [3] deals with HLA-B44 supertype molecules. Kind of assay: HLA-B44 supertype cross-binding. The arrangement: species or system human. Conditions: number of the six B44 supertype alleles bound.
The next assay deals with HLA-B*4403 (Homo sapiens, UniProt P01889, A223V/A65T/A93T/A95T/D201E/D98Y/E176V/E187L/E204Q/E69K/G107R/H137Y/K202T/L105A/L119I/N104T/N87E/Q56L/Q94N/R106L/R155S/R180L/S101N/S121R/S35A/S48T/T118I/V36M/W191S/Y140D/Y91S). Kind of assay: Class I peptide-binding assay, HLA-B*4403 (B44 supertype).
The target in another assay is HLA-B*4001 (Homo sapiens, UniProt P01889, A65T/A93T/A95T/D138N/D98Y/E176V/E69K/N87E/Q56L/Q94N/R180L/S121R/S35A/S48T/T167S/V36M/W171L/Y33H/Y91S). Kind of assay: Class I peptide-binding assay, HLA-B*4001 (B44 supertype).
Another assay has as its target HLA-B*4002 (Homo sapiens, UniProt P01889, A65T/A93T/A95T/D138N/D201E/D98Y/E176V/E204Q/E69K/K202T/N87E/Q56L/Q94N/R180L/S48T/Y33H/Y91S). Kind of assay: Class I peptide-binding assay, HLA-B*4002 (B44 supertype).
The target of a further assay is HLA-B*4501 (Homo sapiens, UniProt P01889, A329T/A65T/A93T/A95T/C349S/D138N/D201E/D98Y/E176V/E187L/E204Q/E69K/H137Y/K202T/L119W/N87E/Q56L/Q94N/R155S/R180D/S121R/S35A/S48T/V127L/V306I/V36M/W191S/Y140L/Y33H/Y91S). Kind of assay: Class I peptide-binding assay, HLA-B*4501 (B44 supertype).
A further assay concerns the target HLA-B*4402 (Homo sapiens, UniProt P01889, A223V/A65T/A93T/A95T/D201E/D98Y/E176V/E187L/E204Q/E69K/G107R/H137Y/K202T/L105A/L119I/N104T/N87E/Q56L/Q94N/R106L/R155S/R180D/S101N/S121R/S35A/S48T/T118I/V36M/W191S/Y140D/Y91S). Kind of assay: Class I peptide-binding assay, HLA-B*4402 (B44 supertype). Conditions: read-out: B*4402.
A further assay has as its target HLA-B*1801 (Homo sapiens, UniProt P01889, A329T/A93T/A95T/C349S/D201E/D54G/D98Y/E176V/E187T/E204Q/E69T/K202T/Q94N/R155S/R180L/S121R/V306I/Y140S/Y195H/Y33H/Y91S). Kind of assay: Class I peptide-binding assay, HLA-B*1801 (B44 supertype).
[4] abbreviates: Table 16d, p53-derived, read-out: HLA Binding (IC50 nM) A*6801.

As for `CC[C@H](C)[C@H](NC(=O)[C@@H](NC(=O)[C@@H]1CCCN1C(=O)[C@H](Cc1ccccc1)NC(=O)[C@@H](NC(=O)[C@@H](N)Cc1ccc(O)cc1)C(C)C)C(C)C)C(=O)N[C@@H](Cc1ccccc1)C(=O)N[C@@H](CO)C(=O)N[C@@H](CCCCN)C(=O)O`, the “No. A3 supertype alleles crossbound (200)” value in assay [1] (Table 20, binding affinity threshold of 200 nM or less) is 3. On HLA-A*6801 (Table 20, TAA A3 supertype candidates, read-out: A*6801 binding affinity), the IC50 stood at 1.7 nM.
As to `CC(C)C[C@H](NC(=O)[C@H](CC(C)C)NC(=O)[C@@H](NC(=O)[C@H](CC(C)C)NC(=O)[C@@H](NC(=O)[C@@H](N)CCCNC(=N)N)[C@@H](C)O)[C@@H](C)O)C(=O)N[C@@H](CO)C(=O)N[C@H](C(=O)N[C@H](C(=O)N[C@@H](CCCNC(=N)N)C(=O)O)[C@@H](C)O)C(C)C` [CEA.376], the “A*1101 binding affinity (in words)” value on HLA-A*1101 is “High”.
Same read-out and setting: in the case of `CC(C)C[C@H](NC(=O)[C@@H](NC(=O)[C@H](CC(C)C)NC(=O)[C@@H](NC(=O)[C@@H](N)CCCNC(=N)N)[C@@H](C)O)[C@@H](C)O)C(=O)N[C@@H](Cc1ccccc1)C(=O)N[C@@H](CC(N)=O)C(=O)N[C@H](C(=O)N[C@H](C(=O)N[C@@H](CCCNC(=N)N)C(=O)O)[C@@H](C)O)C(C)C` [CEA.554] it was “High”.
On to `CC[C@H](C)[C@H](NC(=O)[C@@H](NC(=O)[C@@H]1CCCN1C(=O)[C@H](Cc1ccccc1)NC(=O)[C@@H](NC(=O)[C@@H](N)Cc1ccc(O)cc1)C(C)C)C(C)C)C(=O)N[C@@H](Cc1ccccc1)C(=O)N[C@@H](CO)C(=O)N[C@@H](CCCCN)C(=O)O` [compound 99], for which the “Number of A3 alleles crossbound” value in [1] (Table 16c, Mage2/3-derived) was found to be 3. Further, the IC50 at HLA-A*6801 (Table 16c, Mage2/3-derived, read-out: HLA Binding (IC50 nM) A*6801) is 1.7 nM.
For the compound `CC[C@H](C)[C@H](NC(=O)[C@@H](NC(=O)[C@@H]1CCCN1C(=O)[C@H](Cc1ccccc1)NC(=O)[C@@H](NC(=O)[C@@H](N)Cc1ccc(O)cc1)C(C)C)C(C)C)C(=O)N[C@@H](Cc1ccccc1)C(=O)N[C@@H](CO)C(=O)N[C@@H](CCCNC(=N)N)C(=O)O` [compound 100], the IC50 came to 36 nM at HLA-A*0301 and 2.6 nM at HLA-A*1101 (read-out: HLA Binding (IC50 nM) A*1101, Table 16c, Mage2/3-derived).
As for `CC[C@H](NC(=O)[C@H](CO)NC(=O)[C@@H](N)CO)C(=O)N[C@@H](CCSC)C(=O)NCC(=O)NCC(=O)N[C@@H](CCSC)C(=O)N[C@@H](CC(N)=O)C(=O)N[C@@H](CCCCN)C(=O)O` [compound 118], the IC50 on HLA-A*0301 (Table 16d, p53-derived) stood at 20 nM; on HLA-A*1101 (Table 16d, p53-derived), 5.5 nM; at HLA-A*6801 (setting [4]), 140 nM. The “Number of A3 alleles crossbound” value in assay [1] (Table 16d, p53-derived) is listed as 3.
With `CSCC[C@H](NC(=O)CNC(=O)CNC(=O)[C@H](CCSC)NC(=O)[C@H](CS)NC(=O)[C@H](CO)NC(=O)[C@@H](N)CO)C(=O)N[C@@H](CC(N)=O)C(=O)N[C@@H](CCCNC(=N)N)C(=O)N[C@@H](CCCNC(=N)N)C(=O)O` [compound 121], the “Number of A3 alleles crossbound” value in assay [1] (Table 16d, p53-derived) came to 1. At HLA-A*1101 (Table 16d, p53-derived), the IC50 came out at 70 nM. Besides, the “Immunogenicity Peptide” value in assay [2] is 0/1.
On to `CC[C@H](NC(=O)[C@H](CO)NC(=O)[C@@H](N)CO)C(=O)N[C@@H](CCSC)C(=O)NCC(=O)NCC(=O)N[C@@H](CCSC)C(=O)N[C@@H](CC(N)=O)C(=O)N[C@@H](CCCNC(=N)N)C(=O)N[C@@H](CCCCN)C(=O)O` [compound 122], for which the IC50 on HLA-A*0301 (Table 16d, p53-derived) worked out at 262 nM; at HLA-A*6801 (setting [4]) it was 103 nM. Moreover, in assay [1] (Table 16d, p53-derived), the “Number of A3 alleles crossbound” value came to 3.
On to `CC(C)[C@H](NC(=O)[C@H](CS)NC(=O)[C@H](CO)NC(=O)[C@H](C)NC(=O)CNC(=O)[C@H](Cc1ccccc1)NC(=O)[C@@H](NC(=O)[C@H](Cc1ccc(O)cc1)NC(=O)[C@H](CCCNC(=N)N)NC(=O)CNC(=O)[C@H](CCC(=O)O)NC(=O)[C@@H]1CCCN1)[C@@H](C)O)C(=O)N[C@H](C(=O)O)[C@@H](C)O` [compound 546], for which the Degeneracy in assay [3] was 1. The IC50 on HLA-B*4403 was found to be 456 nM; on HLA-B*4001 it was 4410 nM; at HLA-B*4002, 3290 nM; on HLA-B*4501, 1200 nM; on HLA-B*4402 it was 1560 nM; on HLA-B*1801, 6600 nM.
